Reference: patent publication US20240325379A1, “LOW-DOSE NALTREXOL AND USES THEREOF” (AETHER THERAPEUTICS INC., priority 2021, published 2024)

By UniProt entry, the sequences of proteins in these tests, tags left out.
UniProt P35372, whole entry: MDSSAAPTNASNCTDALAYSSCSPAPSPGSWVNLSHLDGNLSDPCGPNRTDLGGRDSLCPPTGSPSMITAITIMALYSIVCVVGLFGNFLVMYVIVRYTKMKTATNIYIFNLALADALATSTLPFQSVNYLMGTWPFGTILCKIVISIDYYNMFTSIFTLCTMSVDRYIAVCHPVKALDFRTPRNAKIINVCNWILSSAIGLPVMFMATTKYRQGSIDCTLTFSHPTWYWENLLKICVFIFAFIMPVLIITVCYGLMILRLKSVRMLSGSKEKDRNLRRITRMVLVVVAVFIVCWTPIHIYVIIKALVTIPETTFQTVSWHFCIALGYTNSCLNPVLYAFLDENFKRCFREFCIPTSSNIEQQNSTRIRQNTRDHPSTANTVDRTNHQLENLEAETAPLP

Molecular target: MOR (Homo sapiens, UniProt P35372)
Assay: Neutral antagonism at MOR
Source text: The invention embodies usage of any of these compounds or derivatives or metabolites thereof.

Q: With `Oc1ccc2c3c1O[C@H]1[C@H](O)CC[C@@]4(O)[C@@H](C2)N(CC2CC2)CC[C@]314` [6α-naltrexol] as the compound, how does the type of antagonism read?
A: The type of antagonism was “neutral antagonism”.
